Experimental data reported in patent publication US20140113898A1, “BISARYLSULFONE AND DIALKYLARYLSULFONE COMPOUNDS AS CALCIUM CHANNEL BLOCKERS” (Zalicus Pharmaceuticals Ltd., priority 2010, published 2014).

Sequences of proteins named here, by UniProt entry; tags and fusion partners are left off. Residues count along the entry.
UniProt O95180, whole entry: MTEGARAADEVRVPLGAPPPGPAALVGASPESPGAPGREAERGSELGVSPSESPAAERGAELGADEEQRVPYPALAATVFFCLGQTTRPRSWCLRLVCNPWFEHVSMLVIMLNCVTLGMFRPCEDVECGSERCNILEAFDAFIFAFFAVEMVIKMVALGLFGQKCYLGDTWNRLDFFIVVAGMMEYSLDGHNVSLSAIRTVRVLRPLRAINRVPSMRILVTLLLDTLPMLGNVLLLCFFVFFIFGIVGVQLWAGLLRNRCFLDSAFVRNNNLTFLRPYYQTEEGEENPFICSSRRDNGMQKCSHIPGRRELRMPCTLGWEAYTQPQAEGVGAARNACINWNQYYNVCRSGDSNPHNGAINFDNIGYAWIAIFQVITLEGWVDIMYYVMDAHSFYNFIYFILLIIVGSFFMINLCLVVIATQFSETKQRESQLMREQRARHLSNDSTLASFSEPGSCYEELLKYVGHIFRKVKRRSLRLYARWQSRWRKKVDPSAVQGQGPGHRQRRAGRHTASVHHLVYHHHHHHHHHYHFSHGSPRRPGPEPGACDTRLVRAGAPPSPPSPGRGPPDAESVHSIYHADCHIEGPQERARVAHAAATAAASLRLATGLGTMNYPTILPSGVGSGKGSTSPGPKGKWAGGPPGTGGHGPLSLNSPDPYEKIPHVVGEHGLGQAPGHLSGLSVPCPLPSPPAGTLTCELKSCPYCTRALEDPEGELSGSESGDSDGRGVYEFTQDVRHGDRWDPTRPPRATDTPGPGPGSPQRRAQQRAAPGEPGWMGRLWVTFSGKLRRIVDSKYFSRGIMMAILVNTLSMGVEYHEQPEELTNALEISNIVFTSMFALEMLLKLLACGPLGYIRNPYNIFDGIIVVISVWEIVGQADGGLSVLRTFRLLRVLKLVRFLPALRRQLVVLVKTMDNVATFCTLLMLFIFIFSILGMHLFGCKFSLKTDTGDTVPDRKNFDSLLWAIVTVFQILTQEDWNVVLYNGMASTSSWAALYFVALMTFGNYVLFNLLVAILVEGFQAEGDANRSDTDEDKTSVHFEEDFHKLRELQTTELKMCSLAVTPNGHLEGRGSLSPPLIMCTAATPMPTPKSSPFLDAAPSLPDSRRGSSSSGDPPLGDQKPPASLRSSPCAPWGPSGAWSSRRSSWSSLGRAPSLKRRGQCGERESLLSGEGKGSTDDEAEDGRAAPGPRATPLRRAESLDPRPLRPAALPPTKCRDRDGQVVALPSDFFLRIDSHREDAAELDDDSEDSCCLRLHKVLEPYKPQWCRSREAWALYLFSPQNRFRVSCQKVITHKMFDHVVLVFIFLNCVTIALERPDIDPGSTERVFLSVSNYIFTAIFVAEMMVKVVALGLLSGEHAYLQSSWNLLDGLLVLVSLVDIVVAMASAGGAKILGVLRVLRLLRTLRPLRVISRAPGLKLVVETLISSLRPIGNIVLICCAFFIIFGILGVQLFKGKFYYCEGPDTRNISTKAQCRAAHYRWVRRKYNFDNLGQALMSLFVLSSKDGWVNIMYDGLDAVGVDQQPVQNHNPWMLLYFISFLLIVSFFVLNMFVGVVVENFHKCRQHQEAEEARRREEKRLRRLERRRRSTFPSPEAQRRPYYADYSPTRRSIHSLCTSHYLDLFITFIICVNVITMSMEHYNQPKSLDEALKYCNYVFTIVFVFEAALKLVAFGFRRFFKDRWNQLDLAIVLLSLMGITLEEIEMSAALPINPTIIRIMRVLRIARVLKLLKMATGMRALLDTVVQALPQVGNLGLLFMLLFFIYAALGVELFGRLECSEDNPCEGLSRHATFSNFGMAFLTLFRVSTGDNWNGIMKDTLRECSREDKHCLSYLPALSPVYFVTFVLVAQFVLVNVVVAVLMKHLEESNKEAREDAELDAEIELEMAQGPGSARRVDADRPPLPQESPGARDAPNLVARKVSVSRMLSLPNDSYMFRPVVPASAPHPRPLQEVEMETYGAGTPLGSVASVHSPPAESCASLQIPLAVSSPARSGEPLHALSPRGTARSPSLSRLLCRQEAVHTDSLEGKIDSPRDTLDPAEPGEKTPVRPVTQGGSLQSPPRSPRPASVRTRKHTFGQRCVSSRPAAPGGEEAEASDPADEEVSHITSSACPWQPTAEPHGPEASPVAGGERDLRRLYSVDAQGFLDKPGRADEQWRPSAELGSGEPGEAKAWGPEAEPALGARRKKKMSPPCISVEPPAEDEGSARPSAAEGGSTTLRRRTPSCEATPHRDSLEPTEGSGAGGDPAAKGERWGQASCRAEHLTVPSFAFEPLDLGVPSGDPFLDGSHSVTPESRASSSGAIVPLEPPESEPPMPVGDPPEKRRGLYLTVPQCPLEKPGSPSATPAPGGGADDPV
UniProt Q00975, whole entry: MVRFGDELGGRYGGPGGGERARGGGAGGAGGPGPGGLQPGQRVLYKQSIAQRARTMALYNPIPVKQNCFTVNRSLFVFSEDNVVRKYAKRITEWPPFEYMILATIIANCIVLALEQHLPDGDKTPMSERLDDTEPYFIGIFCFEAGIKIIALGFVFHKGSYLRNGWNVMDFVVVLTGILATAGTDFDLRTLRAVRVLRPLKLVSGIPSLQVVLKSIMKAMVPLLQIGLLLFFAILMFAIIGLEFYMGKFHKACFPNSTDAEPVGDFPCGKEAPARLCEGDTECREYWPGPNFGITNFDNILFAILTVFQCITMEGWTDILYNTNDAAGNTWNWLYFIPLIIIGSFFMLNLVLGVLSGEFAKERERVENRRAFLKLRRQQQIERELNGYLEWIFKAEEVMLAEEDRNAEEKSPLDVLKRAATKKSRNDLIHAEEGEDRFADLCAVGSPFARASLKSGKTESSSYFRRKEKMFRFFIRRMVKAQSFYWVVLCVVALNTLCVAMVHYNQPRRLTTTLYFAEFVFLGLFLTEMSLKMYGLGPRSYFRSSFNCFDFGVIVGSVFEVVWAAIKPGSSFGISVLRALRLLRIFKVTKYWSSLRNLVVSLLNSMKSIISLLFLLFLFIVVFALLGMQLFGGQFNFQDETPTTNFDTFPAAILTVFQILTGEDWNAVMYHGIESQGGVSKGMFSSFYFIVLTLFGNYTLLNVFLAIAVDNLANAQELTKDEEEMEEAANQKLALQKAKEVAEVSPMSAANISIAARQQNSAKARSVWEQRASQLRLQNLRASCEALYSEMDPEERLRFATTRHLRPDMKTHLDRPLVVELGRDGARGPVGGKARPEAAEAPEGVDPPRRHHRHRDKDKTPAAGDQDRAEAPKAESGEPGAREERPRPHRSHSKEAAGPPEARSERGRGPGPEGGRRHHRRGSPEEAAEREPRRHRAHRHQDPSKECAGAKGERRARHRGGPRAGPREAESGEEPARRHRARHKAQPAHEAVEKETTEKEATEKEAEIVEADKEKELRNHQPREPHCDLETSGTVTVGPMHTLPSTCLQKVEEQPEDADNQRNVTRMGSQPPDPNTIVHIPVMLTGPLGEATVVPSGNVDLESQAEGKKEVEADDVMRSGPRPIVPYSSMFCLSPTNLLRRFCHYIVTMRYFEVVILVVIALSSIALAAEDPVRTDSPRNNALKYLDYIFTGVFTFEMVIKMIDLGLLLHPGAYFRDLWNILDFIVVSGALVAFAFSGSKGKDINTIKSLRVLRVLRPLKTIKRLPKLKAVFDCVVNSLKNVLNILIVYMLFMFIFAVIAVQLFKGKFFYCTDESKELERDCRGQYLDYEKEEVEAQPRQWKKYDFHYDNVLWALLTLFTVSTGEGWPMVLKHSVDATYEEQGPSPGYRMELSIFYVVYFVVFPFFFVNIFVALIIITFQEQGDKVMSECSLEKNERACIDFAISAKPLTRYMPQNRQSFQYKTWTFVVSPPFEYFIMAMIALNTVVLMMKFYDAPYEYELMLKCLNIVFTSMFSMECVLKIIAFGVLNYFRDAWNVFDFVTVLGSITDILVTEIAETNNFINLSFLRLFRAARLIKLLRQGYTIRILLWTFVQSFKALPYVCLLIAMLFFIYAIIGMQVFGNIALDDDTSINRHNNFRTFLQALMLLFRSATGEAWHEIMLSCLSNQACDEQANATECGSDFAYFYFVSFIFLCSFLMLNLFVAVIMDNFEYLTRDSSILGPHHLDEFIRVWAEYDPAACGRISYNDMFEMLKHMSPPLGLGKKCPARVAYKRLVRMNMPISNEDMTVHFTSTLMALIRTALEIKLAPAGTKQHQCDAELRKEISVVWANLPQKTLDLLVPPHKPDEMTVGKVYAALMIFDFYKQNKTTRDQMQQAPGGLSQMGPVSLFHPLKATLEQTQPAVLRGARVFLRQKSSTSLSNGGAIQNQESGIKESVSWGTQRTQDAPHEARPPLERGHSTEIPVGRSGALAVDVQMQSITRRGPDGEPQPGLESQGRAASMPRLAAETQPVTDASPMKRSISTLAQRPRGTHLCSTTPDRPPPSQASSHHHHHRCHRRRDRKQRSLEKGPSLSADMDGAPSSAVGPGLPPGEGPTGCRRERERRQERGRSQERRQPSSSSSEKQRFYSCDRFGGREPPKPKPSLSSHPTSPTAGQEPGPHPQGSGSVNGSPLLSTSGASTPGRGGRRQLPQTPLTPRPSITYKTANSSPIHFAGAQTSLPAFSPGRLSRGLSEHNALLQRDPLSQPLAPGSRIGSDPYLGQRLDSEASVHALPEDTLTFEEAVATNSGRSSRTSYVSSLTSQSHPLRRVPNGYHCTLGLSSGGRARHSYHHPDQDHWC
UniProt P54284, whole entry partner: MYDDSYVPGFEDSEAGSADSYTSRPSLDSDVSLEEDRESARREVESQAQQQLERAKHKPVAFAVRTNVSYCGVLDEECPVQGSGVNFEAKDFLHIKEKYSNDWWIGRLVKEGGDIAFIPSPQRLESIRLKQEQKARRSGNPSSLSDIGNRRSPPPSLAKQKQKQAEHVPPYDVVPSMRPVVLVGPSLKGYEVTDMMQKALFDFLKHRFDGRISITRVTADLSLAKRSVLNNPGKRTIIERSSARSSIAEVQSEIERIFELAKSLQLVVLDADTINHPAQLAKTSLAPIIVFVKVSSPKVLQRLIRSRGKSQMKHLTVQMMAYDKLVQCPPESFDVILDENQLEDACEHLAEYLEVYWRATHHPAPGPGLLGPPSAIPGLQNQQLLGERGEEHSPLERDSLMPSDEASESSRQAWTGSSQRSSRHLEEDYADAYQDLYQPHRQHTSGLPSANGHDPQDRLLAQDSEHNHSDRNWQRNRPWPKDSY
UniProt P54289, 25-946 partner limits assumed: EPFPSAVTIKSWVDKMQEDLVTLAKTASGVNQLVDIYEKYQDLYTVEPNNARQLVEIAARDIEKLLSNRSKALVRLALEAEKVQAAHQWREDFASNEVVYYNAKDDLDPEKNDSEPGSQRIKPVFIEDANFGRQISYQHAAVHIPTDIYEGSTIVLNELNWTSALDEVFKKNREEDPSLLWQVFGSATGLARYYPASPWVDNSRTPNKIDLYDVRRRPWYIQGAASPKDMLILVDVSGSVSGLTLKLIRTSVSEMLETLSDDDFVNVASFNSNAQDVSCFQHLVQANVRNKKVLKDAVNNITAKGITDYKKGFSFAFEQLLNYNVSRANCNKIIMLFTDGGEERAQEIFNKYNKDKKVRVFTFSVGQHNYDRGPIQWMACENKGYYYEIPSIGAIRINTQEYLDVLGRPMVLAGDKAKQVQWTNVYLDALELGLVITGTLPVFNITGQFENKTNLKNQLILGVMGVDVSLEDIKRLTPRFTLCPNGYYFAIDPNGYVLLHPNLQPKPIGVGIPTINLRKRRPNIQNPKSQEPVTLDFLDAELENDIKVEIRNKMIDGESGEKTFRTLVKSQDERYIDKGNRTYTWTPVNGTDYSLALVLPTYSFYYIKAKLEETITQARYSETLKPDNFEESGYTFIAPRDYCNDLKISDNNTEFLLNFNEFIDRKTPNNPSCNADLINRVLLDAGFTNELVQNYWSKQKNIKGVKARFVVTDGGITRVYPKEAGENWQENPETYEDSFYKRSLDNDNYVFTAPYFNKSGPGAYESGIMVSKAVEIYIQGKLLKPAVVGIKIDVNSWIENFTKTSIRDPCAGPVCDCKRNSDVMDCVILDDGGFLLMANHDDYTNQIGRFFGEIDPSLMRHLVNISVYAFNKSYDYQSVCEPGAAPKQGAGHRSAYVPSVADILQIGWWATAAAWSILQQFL
UniProt P54289, 947-1103 partner limits assumed: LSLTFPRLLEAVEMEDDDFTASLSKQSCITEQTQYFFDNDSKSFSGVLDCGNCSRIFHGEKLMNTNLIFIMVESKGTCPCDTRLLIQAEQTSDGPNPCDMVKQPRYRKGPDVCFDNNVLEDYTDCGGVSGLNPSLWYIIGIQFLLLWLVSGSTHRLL

Legend:
CaV3.2 = CaV3.2 (Homo sapiens, UniProt O95180); assay: High-throughput CaV3.2/Kir2.3 T-type FLIPR fluorescent assay; type: cell-based; conditions: read-out: FLIPR data CaV3.2; Table 5; Fluo-4 FLIPR; closed or inactivated state not stated
Procedure: (§1) Cells were plated in 384-well, clear-bottom, black-walled, poly-D-lysine coated plates (Becton Dickinson, Franklin Lake, N.J.) 2 days prior to use in the FLIPR assay. 100 µL of cells (1.2×10^6 cell/mL) containing doxycyline (Sigma-Aldrich, 1.5 μg/mL; to induce channel expression) were added to each well using a Multidrop (Thermo Scientific, Waltham, Mass.) and were maintained in 5% CO2 incubator at 37° C. On the morning of the assay, cells were transferred to a 5% CO2 incubator at 29° C.
Cells were washed with a wash buffer containing (in mM): 118 NaCl, 18.4 HEPES, 11.7 D-glucose, 2 CaCl2, 0.5 MgSO4, 4.7 KCl, and 1.2 KH2PO4, with the pH adjusted to 7.2 with
NaOH. 4.4 μM of the fluorescent indicator dye Fluo-4 (Invitrogen) prepared in pluronic acid (Sigma-Aldrich) was loaded into the wells and incubated for 45 minutes at 29° C. in 5% CO2. […] A change in the Fluo-4 fluorescence signal was assessed using FLIPR^TETRA™ instrument (Molecular Devices, Sunnyvale, Calif.) for 3 minutes following the elevation of extracellular KCl using an illumination wavelength of 470-495 nm with emissions recorded at 515-575 nm. […]
(§2) To assess the quality of the FLIPR assays the Z-factor (2) was used to quantify the suitability of the assay conditions using the following equation: […]
(§3) Data are expressed as mean and standard deviation (SD).

CaV2.2 = CaV2.2 (Homo sapiens, UniProt Q00975); assay: High-throughput CaV2.2/Kir2.3 FLIPR fluorescent assay; type: cell-based; conditions: read-out: FLIPR data CaV2.2; Table 5; Fluo-4 FLIPR; closed or inactivated state not stated
Procedure: as §1, with “μL” for “µL”, “(1.4×10^6” for “(1.2×10^6”
Cells were washed with a wash buffer containing (in mM): 118 NaCl, 18.4 HEPES, 11.7 D-glucose, 2 CaCl2, 0.5 MgSO4, 4.7 KCl, 1.2 KH2PO4, pH adjusted to 7.2 with NaOH. […]
Concentration-dependent response curves were generated from 5 mM stock solutions prepared in DMSO (Sigma-Aldrich) and diluted in either the 2 mM KCl buffer or 12.5 mM KCl buffer and incubated for 20 minutes at 29° C. in 5% CO2. […] A change in the Fluo-4 fluorescence signal was assessed using FLIPR^TETRA™ instrument (Molecular Devices, Sunnyvale, Calif.) for 3 minutes following the elevation of extracellular KCl using an illumination wavelength of 470-495 nm with emissions recorded at 515-575 nm. […]
as §2, §3

How did the IC50 (CaV3.2) turn out when `CC(C)(CCNC(=O)c1cn2cc(C(F)(F)F)ccc2n1)S(=O)(=O)c1cccc(C(F)(F)F)c1` was run?
The IC50 was 8.3 µM.

What about the IC50 (CaV2.2) of the same compound?
The IC50 was 0.38 µM.
